Source: patent US20230210861A1 (priority 2020, published 2023)

Amino acid sequences for entries named in this document (tags omitted). Residues count along the entry.
UniProt P36544, 23-502: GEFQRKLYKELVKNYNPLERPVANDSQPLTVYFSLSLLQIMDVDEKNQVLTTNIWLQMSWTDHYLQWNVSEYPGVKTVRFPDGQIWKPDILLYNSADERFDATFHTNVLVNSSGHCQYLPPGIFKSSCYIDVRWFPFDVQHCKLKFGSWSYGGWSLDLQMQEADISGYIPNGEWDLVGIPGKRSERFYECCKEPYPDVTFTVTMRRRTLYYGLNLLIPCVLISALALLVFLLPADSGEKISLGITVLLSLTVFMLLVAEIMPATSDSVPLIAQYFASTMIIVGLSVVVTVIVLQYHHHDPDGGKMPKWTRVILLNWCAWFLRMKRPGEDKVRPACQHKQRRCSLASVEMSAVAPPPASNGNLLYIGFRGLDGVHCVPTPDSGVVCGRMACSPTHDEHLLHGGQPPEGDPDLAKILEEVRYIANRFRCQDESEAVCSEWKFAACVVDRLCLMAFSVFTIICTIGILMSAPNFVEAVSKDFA

Key:
human alpha7 nAChR [1] = target: T1, human alpha7 nAChR (Homo sapiens, UniProt P36544); assay: Agonist activity at human alpha7 nAChR expressed in Xenopus oocytes (two-electrode voltage clamp); assay type: cell-based
Description: Agonist Preparation: See Example 1.

human alpha7 nAChR [2] = target: T1, human alpha7 nAChR; assay: Desensitization / antagonistic activity, cumulative exposure in the low concentration range, alpha7 in Xenopus oocytes; assay type: cell-based; conditions: concentrations up to 300 nM; in words

Substance: varenicline tartrate [reference compound]
- effect on the subsequent ACh-evoked current, alpha7 (human alpha7 nAChR [1]; after the agonist concentration series): no significant inhibition of the subsequent ACh-evoked current
- agonist character at nAChR alpha7 (human alpha7 nAChR [1]; in words): full agonist
- EC50 (human alpha7 nAChR [1]; test concentrations 0.1-300 uM, for compound 1 salts only an estimation given the small fraction of current evoked): ~11 µM and ~15 µM
- inhibition of ACh-evoked current on sustained exposure, alpha7 (human alpha7 nAChR [2]): caused inhibition for concentrations in the hundreds of nanomolar range; also recorded: causes a desensitization

Where “and” joins values, the source holds several entries; their conditions need not be identical. Equal entries are not always repeated. Entries after “also recorded” stand apart in the source; their conditions may differ.
